## Apparent affinities of Ab-14 variants for a coronavirus HR2 peptide

The measurements come from Engelhart et al. 2022 (doi:10.1038/s41597-022-01779-4) through the FLAb antibody collection.

Target peptide (SARS-CoV-2 spike, HR2 region): PDVDLGDISGINAS

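The parent was found by panning a naive human phage display library on the peptide. AAYL50 was designed without a model: most single CDR substitutions and a random sample of double and triple ones. The assay is AlphaSeq: two haploid yeast populations carry antibody and antigen on their surface. After mating in shaken culture at 30 °C for 16 h, diploids were selected and their barcode pairs sequenced. A regression on co-assayed BCL2-family reference pairs converts the normalised counts of each replicate to an apparent Kd. Each pool was mated in three replicate cultures.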

Parent: Ab-14, a human scFv built as VH, the linker GGGGSGGGGSGGGGS, VL. Only the CDRs of the light chain vary.
VH: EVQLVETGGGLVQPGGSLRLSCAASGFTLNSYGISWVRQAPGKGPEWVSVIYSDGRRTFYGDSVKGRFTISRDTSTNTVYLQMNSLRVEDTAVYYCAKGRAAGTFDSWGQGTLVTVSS
VL: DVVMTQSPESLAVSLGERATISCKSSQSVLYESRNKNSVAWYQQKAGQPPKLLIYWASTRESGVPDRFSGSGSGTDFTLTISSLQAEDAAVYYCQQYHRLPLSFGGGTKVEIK

Variants are written as CDR1, CDR2 and CDR3 of the light chain (limits as in the source). Parent: KSSQSVLYESRNKNSVA, WASTRES, QQYHRLPLS.
The read-out is the apparent dissociation constant on a log10 scale (nM): the lower, the stronger.
Where no diploid with the target was found in that replicate, the entry reads "ND": below detection, most likely a poor binder, though not proof of it.
In this assay the parent's reference entry averaged 0.65; its copy inside this library read 1.68.
Background: pairings of library AAYL50 with three empty control strains gave a value in 18% of cases (median 4.19, 5th percentile 2.99). Values in that range, when seen in few replicates, are hard to tell from nonspecific mating. For each scFv, signals with the empty controls are counted beside the result.

For KSSWSMLYESRNKNSVA, WESTRES, QQYHRLPLS, the assay gave 1.97, 1.98, 2.32 (controls 3 of 9).
For KSSQSVLYPSRNSNSVA, WASTRES, QQYDRLPLS, the assay gave 0.92, 1.17, 1.26 (controls 0 of 9).
For KSSQSYLYESRNKNSSA, WASTRES, QQYHRSPLS, the assay gave ND, 5.33, 3.80 (controls 3 of 9).
For KSSQQYLSESRNKNSVA, WASTRES, QQYHRLPLS, the assay gave 0.41, 0.83, 0.87 (controls 0 of 9).
For KSSQSVLYESRNKNSVA, MASPRES, QQYHRLDLS, the assay gave ND, ND, ND (controls 0 of 9).
For KSSQSVLYESDNKNSVA, WASTRES, QQYHPLPLS, the assay gave ND, 5.26, ND (controls 3 of 9).
For KSSQSVYWESRNMNSVA, WASTRES, QQYHRLPLS, the assay gave 1.15, 1.23, 1.12 (controls 2 of 9).
For KSSQSVLYESRNKNSVA, WASTAES, HQYHRLPLS, the assay gave 6.56, ND, ND (controls 4 of 9).
For WSSQSVLYESRNKNSVA, WASTRES, QQQHRLPLS, the assay gave 1.87, 2.12, 2.21 (controls 0 of 9).
For KISQSVLYESRNKNAVA, WASTRES, QQYHRLPIS, the assay gave -0.20, 0.16, -0.12 (controls 6 of 9).
For KSSQSWLYESRNKNSVA, WARTRES, QQYHRLPLR, the assay gave 3.67, 3.61, 4.54 (controls 0 of 9).
For KSSQSVLYESRMWNSVA, CASTRES, QQYHRLPLS, the assay gave 2.98, 3.06, 3.23 (controls 5 of 9).
For KSSQSVLYESRNKNSDA, WWSTRES, QQYHKLPLS, the assay gave ND, 4.25, ND (controls 1 of 9).
For KSSQSVLYLSRNKNSVA, WAMTAES, QQYHRLPLS, the assay gave ND, ND, ND (controls 3 of 9).
For KSSQSVLYESRNKNSVA, WASTRES, QEYHRLPDT, the assay gave ND, 3.53, 3.71 (controls 0 of 9).
For KSSQSVLYEYFNKNSVA, WASTCES, QQYHRLPLS, the assay gave 4.12, 3.45, ND (controls 3 of 9).
For KSHQSVLYESRNKNSVA, WASHRES, QQYHRLPLH, the assay gave ND, ND, 4.07 (controls 0 of 9).
For KSSQNVLYESRFKNSVA, WAETRES, QQYHRLPLS, the assay gave 2.06, 2.11, 1.82 (controls 3 of 9).
For KSEQSVLYESRNKNSVI, WASTRES, QQYDRLPLS, the assay gave ND, ND, ND (controls 0 of 9).
For KSSQSVLYESRNKNSMA, WASTREE, QQYHRLPLP, the assay gave 3.01, 3.05, 5.27 (controls 5 of 9).
For KSSQSVLYESRNKNSVA, WAANRES, QQYHCLPLS, the assay gave ND, ND, ND (controls 1 of 9).
For KSSQSVLYESRNINSVA, WASTYES, QQYHRLPVS, the assay gave ND, ND, ND (controls 0 of 9).
For KSSQSVLYESRSKNSVA, WASTRES, QQYTRLPLQ, the assay gave ND, ND, ND (controls 0 of 9).
For KSSQSVLEESRNKNSVA, WASTYES, QQYHWLPLS, the assay gave 2.84, 3.05, 2.90 (controls 1 of 9).
For KSYQWVLYESRNKNSVA, WASTRES, QQYHRLPLS, the assay gave 2.57, 2.76, 2.88 (controls 0 of 9).
For KSSQSVLYESRNMCSVA, WASTRHS, QQYHRLPLS, the assay gave 4.23, 3.22, 3.66 (controls 0 of 9).
For KSFQKVLYMSRNKNSVA, WASTRES, QQYHRLPLS, the assay gave 3.38, 4.09, 2.81 (controls 2 of 9).
For KSSQSVLYESRNKNSVA, WWSTRES, QQYIWLPLS, the assay gave ND, ND, ND (controls 1 of 9).
For KSSGSVLYESRNKNSWA, WASTRES, QQYHRSPLS, the assay gave 4.73, 3.84, ND (controls 7 of 9).
For PSSQSVLMESRNKNSVA, WASTRES, QQYHRLPSS, the assay gave ND, ND, 3.71 (controls 4 of 9).
For KSSQSVLYESRNKNSVA, WASTREE, QKYHRLPLH, the assay gave ND, ND, ND (controls 0 of 9).
For KSPQAVLYESRNKNSVA, WASTRED, QQYHRLPLS, the assay gave 0.14, 0.55, 0.37 (controls 0 of 9).
For KSSQSVLYECRNKNSVA, WASTRES, QQYHMLPLS, the assay gave ND, ND, ND (controls 0 of 9).
For KSSQSALCESRNKNSVA, WASTRES, QQYHRLPPS, the assay gave ND, ND, ND (controls 0 of 9).
For KSSQSVLYESWNKNSVA, WASNRES, QQYHRLPYS, the assay gave ND, ND, ND (controls 0 of 9).
For KSSQSVLYCSRNKNSSA, WASTRES, QQFHRLPLS, the assay gave ND, ND, 4.91 (controls 4 of 9).
For KSSQSVLYESRNKNCVA, WASTIHS, QQYHRLPLS, the assay gave 3.90, 3.50, 5.06 (controls 2 of 9).
For KSSQPVRYESRNKNSVA, WNSTRES, QQYHRLPLS, the assay gave ND, 3.75, ND (controls 2 of 9).
For KSSQLVLYESRNCNSVC, WASTRES, QQYHRLPLS, the assay gave ND, ND, ND (controls 0 of 9).
For KSSQSVLYESRNKNSVA, YASTPES, QQYHRLILS, the assay gave 2.48, 2.29, 2.28 (controls 2 of 9).
For KLSQSVLYESRNKNSVS, WASTRES, QQFHRLPLS, the assay gave 2.07, 4.08, 2.97 (controls 1 of 9).